The source made the active and inactive calls. The rule behind the calls is not given here.

Amino acid sequences for entries named in this document (tags omitted). A change or cut given only in a name is not applied to a line headed by its entry.
UniProt Q9BZP6: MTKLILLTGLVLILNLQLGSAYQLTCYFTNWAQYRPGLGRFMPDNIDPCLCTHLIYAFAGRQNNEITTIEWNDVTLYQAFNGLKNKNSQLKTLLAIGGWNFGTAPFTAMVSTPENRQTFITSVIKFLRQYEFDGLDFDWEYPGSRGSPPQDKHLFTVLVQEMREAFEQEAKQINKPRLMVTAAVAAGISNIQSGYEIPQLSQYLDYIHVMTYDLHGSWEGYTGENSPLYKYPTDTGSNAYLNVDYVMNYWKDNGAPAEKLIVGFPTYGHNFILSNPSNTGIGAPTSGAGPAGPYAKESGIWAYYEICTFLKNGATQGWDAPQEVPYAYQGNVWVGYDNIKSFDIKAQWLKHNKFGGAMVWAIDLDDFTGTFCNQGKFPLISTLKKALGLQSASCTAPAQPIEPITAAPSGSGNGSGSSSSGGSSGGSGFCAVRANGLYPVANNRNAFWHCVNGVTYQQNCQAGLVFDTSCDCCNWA

The species named for one assay is Mus musculus. The following applies: C57BL/6N, dose 100.0 mg/kg.
Assay [1] addresses Acidic mammalian chitinase (Homo sapiens, UniProt Q9BZP6). Kind of assay: Inhibition of full-length C-terminal his-tagged human AMCase expressed in CHO-K1 cells assessed as reduction in chitinolytic activity using 4-methylumbelliferyl-beta-D-N,N-diacetylchitobioside hydrate as substrate after 60 mins by fluorometric assay. The class given is cell-based.

As to `COC(=O)c1ccc2c(c1)NC(=O)/C2=C(\Nc1ccc(N(C)C(=O)CN2CCN(C)CC2)cc1)c1ccccc1`, the inhibition result in the assay filed under Mus musculus was “inactive”.

As to `COC[C@H]1CN(C2CCN(c3nc(N)n[nH]3)CC2)[C@@H](Cc2ccc(Cl)cc2)CO1`, in assay [1], the IC50 amounted to 8.9 nM.

Values taken from ChEMBL document CHEMBL4699582, “Discovery of OATD-01, a First-in-Class Chitinase Inhibitor as Potential New Therapeutics for Idiopathic Pulmonary Fibrosis” (J Med Chem, 2020).
